This passage reports FRET signal results from patent publication US20260265300A1, “TARGETING PRAC1 IN STEROID HORMONE DRIVEN CANCER” (Fred Hutchinson Cancer Center, priority 2023, published 2026).

Amino acid sequences for entries named in this document (tags omitted). Residues count along the entry.
UniProt P10275, 669-900 limits assumed: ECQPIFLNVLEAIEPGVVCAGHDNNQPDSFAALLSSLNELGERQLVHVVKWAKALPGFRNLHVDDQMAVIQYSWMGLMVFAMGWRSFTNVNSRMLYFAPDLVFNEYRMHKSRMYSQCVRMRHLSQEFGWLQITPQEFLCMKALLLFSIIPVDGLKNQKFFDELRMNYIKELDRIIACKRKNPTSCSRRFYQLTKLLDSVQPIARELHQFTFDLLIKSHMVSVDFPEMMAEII

The assay concerns the target T1, ligand binding domain (LBD) of the androgen receptor (Homo sapiens, UniProt P10275).
T1 construct: made in house; host or cells: bacteria
Nature of the assay: TR-FRET assay of AR-PRAC1 interaction. The following applies: His-tagged AR LBD with Terbium-labeled anti-His-tag antibodies, FITC-labeled peptide. An excerpt:
To identify small molecules that bind to the AR/PRAC1 interface, a scalable TR-FRET assay has been developed that allows the performance of the screens in a 384 well format. The assay combines the time-resolved (TR) measurement of fluorescence with fluorescence resonance energy transfer (FRET). The ligand binding domain (LBD) of the androgen receptor containing a His-tag is expressed in bacteria. Recombinant His-tagged AR is further labeled with Terbium-labeled anti-His-tag antibodies and incubated with FITC-labeled PRACA1 peptides. The binding (i.e., proximity of AR and PRAC1) generates the FRET signal in this assay.
This is the first saleable in vitro assay to determine the interaction of AR and PRAC1. It can be used to test the affinity of modified PRAC1 mimetic peptides and represents a platform technology for screening small molecules that interfere with the AR-PRAC1 interaction.
On the technique in general: Time-resolved FRET reads energy transfer from a long-lived donor to a nearby acceptor.

Take PPRVLFSLIRKHLL [SEQ ID NO:9]: the FRET signal entry is recorded as “dose dependent increase in FRET signal”.
